The values that follow come from patent US7094781B2, “Sulfamides and their use as endothelin receptor antagonists” (Actelion Pharmaceuticals Ltd., priority 2000, dated 2006).

Sequences of proteins named here, by UniProt entry; tags and fusion partners are left off. Residues count along the entry.
UniProt P25101, 21-427 limits assumed: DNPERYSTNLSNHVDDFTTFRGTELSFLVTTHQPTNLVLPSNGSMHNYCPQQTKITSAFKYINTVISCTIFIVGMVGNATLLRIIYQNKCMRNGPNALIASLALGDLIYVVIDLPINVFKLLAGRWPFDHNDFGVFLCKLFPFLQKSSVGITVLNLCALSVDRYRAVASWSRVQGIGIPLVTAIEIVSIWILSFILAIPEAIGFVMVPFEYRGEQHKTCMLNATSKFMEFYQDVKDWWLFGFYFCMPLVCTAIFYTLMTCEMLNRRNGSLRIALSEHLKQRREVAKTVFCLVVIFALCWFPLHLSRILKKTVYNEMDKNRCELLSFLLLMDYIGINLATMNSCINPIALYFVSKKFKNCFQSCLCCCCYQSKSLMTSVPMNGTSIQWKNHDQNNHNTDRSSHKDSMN
UniProt P24530, 27-442 limits assumed: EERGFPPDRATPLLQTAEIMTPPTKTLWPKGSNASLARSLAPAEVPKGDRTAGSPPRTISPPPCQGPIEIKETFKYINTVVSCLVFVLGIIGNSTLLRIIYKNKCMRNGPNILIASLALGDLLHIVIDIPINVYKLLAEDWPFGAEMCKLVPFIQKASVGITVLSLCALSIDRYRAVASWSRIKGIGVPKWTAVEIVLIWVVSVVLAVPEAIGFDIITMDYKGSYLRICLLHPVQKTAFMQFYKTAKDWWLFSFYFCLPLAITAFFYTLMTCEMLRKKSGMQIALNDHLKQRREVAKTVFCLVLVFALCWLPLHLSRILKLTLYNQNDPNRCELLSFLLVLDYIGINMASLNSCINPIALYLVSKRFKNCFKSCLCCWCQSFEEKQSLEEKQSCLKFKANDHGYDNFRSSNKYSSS

Assay [1] concerns the target human recombinant ETA receptor (Homo sapiens, UniProt P25101). Nature of the assay: Inhibition of [125I]ET-1 binding to membranes from CHO cells carrying human ETA receptors. The settings on record: read-out: IC50 ETA; CHO cell membranes, 8 pM [125I]ET-1, 2 h at 20° C.
In assay [2] the target is human recombinant ETB receptor (Homo sapiens, UniProt P24530). The assay can be described thus: Inhibition of [125I]ET-1 binding to membranes from CHO cells carrying human ETB receptors. The settings on record: read-out: IC50 ETB; CHO cell membranes, 8 pM [125I]ET-1, 2 h at 20° C.

In general, IC50 refers to the point on the concentration scale where inhibition reaches its midpoint.

Take `CCCCNS(=O)(=O)Nc1nc(-c2ncccn2)nc(OCCOc2ncc(Br)cn2)c1Oc1ccccc1OC`: the IC50 in assay [1] stood at 2.7 nM.
Regarding `CCCCNS(=O)(=O)Nc1nc(-c2ncccn2)nc(OCCOc2ncc(SC)cn2)c1Oc1ccccc1OC`, the values for the IC50 in assay [1] and in assay [2] were 0.9 nM and 40 nM, respectively.
For `COc1ccccc1Oc1c(NS(=O)(=O)NC2CC2)nc(-c2ncccn2)nc1OCCOc1ccc(C(F)(F)F)cn1` the same measures were 133 nM and 682 nM.
The like results for `COc1ccccc1Oc1c(NS(=O)(=O)NC2CC2)nc(-c2ncccn2)nc1OCCOc1ncccn1` were, in that order, 38.4 nM and 667 nM.
For `COc1cnc(OCCOc2nc(-c3ncccn3)nc(NS(=O)(=O)NCc3ccccc3)c2Oc2ccccc2OC)nc1` the same measures were 14.5 nM and 290 nM.
Regarding `COc1ccccc1Oc1c(NS(=O)(=O)NCc2ccccn2)nc(-c2cnccn2)nc1OCCOc1ncc(Br)cn1`, the IC50 in assay [1] was found to be 11 nM; in assay [2], 487 nM.
Take `COc1cnc(OCCOc2ncnc(NS(=O)(=O)NCc3ccccn3)c2-c2ccc(Cl)cc2)nc1`: the IC50 in assay [1] was found to be 25 nM; in assay [2] it was 3410 nM.
